Experimental data reported in patent US7993756B2, “Long-chain quaternary ammonium compounds as wood treatment agents” (Viance, LLC, priority 2005, dated 2011).

Assay: Water solubility of 2HT
Format: physicochemical
Settings: ambient temperatures
Experimental: At ambient or lower than ambient temperatures, 2HT and water mixtures exist as a gel or paste. The viscosity of 2HT/water binary systems can be adjusted by changing the anion. When heated to 40-100° C., 2HT exists as a transparent solution in water or aqueous preservative solutions. Although soluble in water or aqueous preservative solutions at elevated temperatures, 2HT appears to be well fixed in wood substrates. It is believed that 2HT is fixed inside wood structures through physical absorption, precipitation, chemical, and physicochemical interactions.

Q: Which water solubility does the source give for “dimethyl di(hydrogenated tallow) ammonium compound [2HT]” here?
A: Its water solubility is “low water solubility”.
